Results: patent US7365095B2, “Chromane and chromene derivatives and uses thereof” (Wyeth, priority 2005, dated 2008)

Amino acid sequences for entries named in this document (tags omitted). Residues count along the entry.
UniProt P28335, 33-458: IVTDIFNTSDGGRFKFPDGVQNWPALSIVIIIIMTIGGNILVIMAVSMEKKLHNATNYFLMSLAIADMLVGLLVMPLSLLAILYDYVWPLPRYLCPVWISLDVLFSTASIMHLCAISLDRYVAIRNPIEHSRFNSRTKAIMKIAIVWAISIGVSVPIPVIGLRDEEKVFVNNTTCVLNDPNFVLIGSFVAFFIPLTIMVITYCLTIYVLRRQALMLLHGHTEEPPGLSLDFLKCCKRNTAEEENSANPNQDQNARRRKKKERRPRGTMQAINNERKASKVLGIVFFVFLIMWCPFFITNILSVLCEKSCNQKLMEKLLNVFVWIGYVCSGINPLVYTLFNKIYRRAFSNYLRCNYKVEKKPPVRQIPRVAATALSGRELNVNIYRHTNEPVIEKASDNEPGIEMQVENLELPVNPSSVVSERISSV

Columns and labels:
[1] = molecular target: T1, human 5-hydroxytryptamine-2C (h5-HT2C) receptor (Homo sapiens, UniProt P28335); assay: [125I]DOI binding to membranes of CHO cells expressing h5-HT2C receptor; settings: reference compounds; 95% confidence interval in brackets; [125I]DOI displacement
T1 construct: expressed in transfected cells; host or cells: CHO (Chinese Hamster Ovary) cells; membrane preparation

human 5-HT2C receptor = human 5-HT2C receptor (Homo sapiens, UniProt P28335); settings: reference compounds; calcium mobilization

For `Clc1cccc(N2CCNCC2)c1` [mCPP, meta-chlorophenylpiperazine, reference compound], the Ki [1] was 6.5 nM and the EC50 (human 5-HT2C receptor) was 5.4 nM.
